Results on one molecule are retold here after PubChem BioAssay AID601 (SRMLSC, 2007).

Structures are written as SMILES. The entries are a selection whose mix differs from that of the whole data set. Some of these compounds have results that are not shown, active ones among them. Active and inactive are the calls of the source.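 The calls were made as follows: active = viability loss from added drug above about 55%, and viability with drug at most 40%, in both replicates (limit read from the data, passing the limit was not always enough); inconclusive = both conditions met in only one replicate; inactive = neither replicate meets both conditions.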

This test is described as follows: reversal of MRP1-mediated doxorubicin resistance, pilot screen, H69AR cells, doxorubicin co-treatment (AID 601). As to conditions: H69AR cells + 2 uM doxorubicin, CellTiter-Glo, 72 h; at 10 µM; stronger effect = higher value. A general note: In ATP-based viability assays light output follows the ATP content of the culture.
Take `O=C(OC1CN2CCC1CC2)C(CO)(c1ccccc1)c1ccccc1` (stereo unspecified): the differential viability (reversal) is inactive: 10.8%.
